Test results as given in patent US20110165266A1 (priority 2008, published 2011).

Test system: VSV-G pseudotyped MLV vector (pLEGFP)
Assay: Real-time quantitative PCR of viral DNA (reverse transcription products, integrated DNA) in CHO-K1 cells
Assay type: cell-based, murine leukemia virus (MLV)
Settings: CHO-K1 cells passaged in 100 mM chlorate; 18 days post infection; FIG. 5D

[O-][Cl+2]([O-])O [chlorate]
integrated viral DNA, fold less than untreated CHO-K1 cells: 2.6 fold
